The source of these data is patent US4038401A, “Novel indole derivative” (John Wyeth & Brother Limited, priority 1976, dated 1977).

Like-named read-outs stand apart in the source and are kept apart here.

In one series the test system is rats. It counts as in vivo, rat. How it is done: Sedation was measured in rats for Indoramin and 4-Benzamido-1-[4-(indol-3-yl)-4-oxobutyl]piperidine in comparison with the tranquillisers perphenazine and haloperidol which were rated at 10.
Twelve rats of each type were split into […] and dosed orally with 10, 25 or 50 mg/kg of the test compound in a vehicle comprising hydroxymethylcellulose (0.5%) in (0.9% saline). Each rat was housed singly, after dosing and observed closely for 2 hours, then intermittently for a further four hours, behavioural changes being noted.
The animals were left at least 72 hours before re-dosing to ensure the disappearance of residual hypotensive and sedative effects.

The subject of the next series is Patas monkey. It is filed as in vivo. The settings on record: Patas monkey (male); oral 10-100 mg/kg. How it is done:
The sedative potential of the compounds was also compared in the Patas monkey at dosing levels of 10-100 mg/kg. A group of 6 animals were housed singly and observed daily for one week prior to dosing them orally with the drugs. Each animal served as its own control because of individual variation in temperament. An assessment was made of behavioural changes (indicative of sedation) induced by either drug and the dose ratio separating the drug effects on identical features was determined.

For series [1] the following is noted: J. Med. Chem., 14, 1054-59 (1971); cited from earlier work.
A short description of a further series: in vivo. To be noted: mouse.

The LD50 is the dose at which mortality reaches 50%. On to `O=C(NC1CCN(CCc2c[nH]c3ccccc23)CC1)c1ccccc1` [Indoramin, 3-[2(4-benzamidopiperid-1-xl)ethyl] indole, reference compound], for which the “Approximate sedative potency ratio” value in the series on rats (normotensive rat (male and female)) is on record as 5; with rats (renal hypertensive rat (female)), 5; in the series with rats (spontaneous hypertensive rat (male)) it was 5; with Patas monkey it was 5. In addition, in series [1], the hypotensive action result was “sustained hypotensive action”. Further, the LD50 in the series “in vivo” (ip) was determined as 453 mg/kg; in the series “in vivo” (po), 1050 mg/kg. Also, the values for the LD50 at 24 h in the series “in vivo” (ip) and in the series “in vivo” (po) were 453 mg/kg and 1320 mg/kg, respectively.
